{"sequences": {"note": "By UniProt entry, the sequences of proteins in these tests, tags left out. Residues count along the entry.", "UniProt P11473, 127-423 limits assumed": "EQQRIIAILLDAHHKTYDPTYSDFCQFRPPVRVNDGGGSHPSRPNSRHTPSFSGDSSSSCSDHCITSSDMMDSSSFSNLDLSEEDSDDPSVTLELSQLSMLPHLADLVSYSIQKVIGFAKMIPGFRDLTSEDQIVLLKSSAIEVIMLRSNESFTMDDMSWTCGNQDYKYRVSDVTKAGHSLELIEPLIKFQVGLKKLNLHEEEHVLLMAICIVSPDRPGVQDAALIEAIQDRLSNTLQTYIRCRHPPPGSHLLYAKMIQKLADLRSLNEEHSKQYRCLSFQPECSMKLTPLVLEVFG"}, "source": "patent US7601850B2", "about": "“Phenyl-thiophene type vitamin D receptor modulators” (Eli Lilly and Company, priority 2002, dated 2009)", "key": {"VDR": {"target": "VDR (Homo sapiens, UniProt P11473)", "assay": "VDR CTF (Caco-2 cell co-transfection assay)", "assay_type": "cell-based", "details": "read-out: VDR CTF (Caco-2 cells) EC50"}, "RXR-VDR heterodimer": {"target": "RXR-VDR heterodimer (Homo sapiens, UniProt P11473)", "assay": "RXR-VDR heterodimerization assay (SaOS-2 cells)", "assay_type": "cell-based", "details": "read-out: RXR-VDR (SaOS-2 cells) EC50"}}}
{"smiles": "CCC(CC)(c1ccc(OCC(=O)Nc2nnn[nH]2)c(C)c1)c1cc(C)c(CCC(O)C(C)(C)C)s1", "note": "(single isomer, unassigned)", "values": [{"measurement": "EC50", "setting": "VDR", "result": 1230, "unit": "nM"}, {"measurement": "EC50", "setting": "RXR-VDR heterodimer", "result": 736, "unit": "nM"}]}
